Outcome data for 33 compounds are collected here from PubChem BioAssay AID593 (National Center for Advancing Translational Sciences (NCATS), 2007).

The entries are a selection whose mix differs from that of the whole data set. Records with an inconclusive call do not appear. The source made the active and inactive calls. No stated cut-off is given here; in the data, active means max fluorescein-equivalent concentration above about 10 nM; inconclusive means between about 1.1 nM and that limit; inactive means weaker than that.

The test can be described thus: qHTS Assay for Spectroscopic Profiling in Fluorescein Spectral Region. As to conditions: Compound autofluorescence, 480/540 nm, fluorescein-equivalent. From the text:
NIH Molecular Libraries Screening Centers Network [MLSCN]
NIH Chemical Genomics Center [NCGC]
Occasionally, the artifactual effect may originate from the compound's own spectral or other biophysical properties which generally tend to track its assay concentration. Pre-screening/profiling the library with respect to the compounds' spectral properties should help one exclude false positives early on. While the most informative fluorescent profiling data set is obtained by performing a full excitation and emission scan of each well by using a monochromator-based plate reader, such an approach is practical only on a very limited scale as scanning each well requires long time. An alternative approach, applied here, is to perform plate reader scans using selected excitation and emission wavelength pairs to generate a multidimensional relational database that correlates compound concentration and the respective relative fluorescence intensity at a given wavelength set. A standard curve of fluorescein present on each plate as six-point concentration series, was used to compute a normalized fluorescence response, termed dye-equivalent concentration, for each compound at each concentration.
NCGC Assay Protocol Summary:
100 mM Tris buffer, pH 8.0
The wells in columns 1 through 4 of a Kalypsys polypropylene 1536-well compound plate were filled with standard solutions of fluorophore corresponding to the spectral region of interest. Solutions of Fluorescein were placed in the following wells: Q1, R1: 3 mM, Q2, R2: 300 uM, Q3, R3: 30 uM, Q4, R4: zero (DMSO), S1, T1: 3 uM, S2, T2: 900 nM, S3, T3: 300 nM, S4, T4: zero (DMSO).
Six uL of buffer were dispensed to 1536-well Greiner black plates. Compounds and dye standards (23 nL) were transferred via Kalypsys PinTool. The plates were incubated for 15 min at room temperature, and then read on ViewLux (Perkin-Elmer) High-throughput CCD imager using 480 nm and 540 nm excitation and emission filter set.
Keywords: NIH Roadmap, MLSCN, MLI, MLSMR, qHTS, NCGC, Fluorescein, Fluorescent Profiling.
In the case of `CCN(CC)CC(O)COC(=O)C(O)(c1ccccc1)C1CCCCC1` (stereo not drawn), the result was inactive.
Take `COc1ccccc1OP(C)(=O)Nc1c(C)n(C)n(-c2ccccc2)c1=O` (stereo not drawn): the outcome was inactive.
The same measure for `CCc1nc2c(n1)c1c(non1O)c1c2no[n+]1[O-]`: “inactive”; for `O=C(CO)Nc1ccc([As](=O)(O)O)cc1`: “inactive”.
The same measure for `COc1ccccc1OP(C)(=O)Nc1ccc(C)c(C)c1` (stereo not drawn): “inactive”; for `Cc1nc2ccc3ccccc3c2o1.O=[N+]([O-])c1cc([N+](=O)[O-])c(O)c([N+](=O)[O-])c1`: “inactive”.
The same measure for `C(Cc1nn[nH]n1)c1nn[nH]n1`: “inactive”; for `O=P1(Nc2nc3ccc(Cl)cc3s2)COc2ccccc2O1` (stereo not drawn): “inactive”.
In the case of `CP(=O)(Nc1ccccc1F)Oc1ccccc1` (stereo not drawn), the result was inactive.
Next, `COC(=O)c1cc2c(s1)N=C(c1ccccc1)N(C)P2(=O)N1CCOCC1` (stereo not drawn): “inactive”; `CN(C)CCOC(=O)C(O)(c1ccccc1)C1CCCCC1` (stereo not drawn): “inactive”.
Take `[N-]=[N+]=Nc1ccc([As](=O)(O)O)cc1`: the result was inactive.
Next, `O=C(OC1CN2CCC1CC2)c1cccc(Cl)c1` (stereo not drawn): “inactive”; `c1nnnn1CCn1cnnn1`: “inactive”.
As to `C[C@@H](O)COc1ccc([As](=O)(O)O)cc1N`, the result was inactive.
`NNC(NN)NN.n1nc(-c2nn[nH]n2)n[nH]1`: the result was inactive.
In the case of `CN(CCCl)Cc1cc(Cl)c(NC2=NCCN2)c(Cl)c1`, the result was inactive.
As to `Clc1n[nH]nc1-c1nn[nH][15n]1`, the result was inactive.
With `Cc1nc2ccc3ccccc3c2s1.O=[N+]([O-])c1cc([N+](=O)[O-])c(O)c([N+](=O)[O-])c1`, the result was inactive.
The same measure for `CN(C(=O)Cc1ccc(Cl)c(Cl)c1)[C@@H]1CCCC[C@H]1N1CCCC1`: “inactive”.
Next, `O=P1(Nc2ncccn2)COc2ccccc2OC1`: “inactive”; `Cc1ccc(OCC(=O)OC2CN3CCC2CC3)cc1` (stereo not drawn): “inactive”.
The same measure for `O=P(Nc1nccs1)(c1ccccc1)c1nc2ccccc2s1` (stereo not drawn): “inactive”; for `O=[As](O)(O)c1ccc([As](=O)(O)O)cc1`: “inactive”.
As for `NC(=O)Nc1ccc([As](=O)(O)O)cc1`, the outcome was inactive.
The same measure for `NS(=O)(=O)Cc1ccc([As](=O)(O)O)cc1`: “inactive”.
The same measure for `O=C(CC(=O)c1ccccc1)O[C@H]1CN2CCC1CC2`: “inactive”; for `COc1ccccc1OP(C)(=O)Nc1ccc(C)cc1` (stereo not drawn): “inactive”; for `O=[As]c1ccc(S(=O)(=O)NCCO)cc1` (stereo not drawn): “inactive”.
Next, `N1=C(c2nnc(-c3nn[nH]n3)nn2)NNN1`: “inactive”; `CP(=O)(NC(=O)Nc1ccccc1)Oc1ccccc1` (stereo not drawn): “inactive”; `O=C(COc1ccccc1)OC1CN2CCC1CC2` (stereo not drawn): “inactive”.
Regarding `O=C(O)[C@@H](O)c1ccc([As](=O)(O)O)cc1`, the result was inactive.
